What was measured:
[1] = test system: CCCC(=O)N[C@H]1CCOC1=O; experiment: purified protein; details: 50 mM sodium phosphate pH 6.8, 37 °C, 10 min, 5% methanol substrate
[2] = test system: CCCCCCCCCC(=O)CC(=O)N[C@H]1CCOC1=O; experiment: purified protein; details: 50 mM sodium phosphate pH 6.8, 37 °C, 10 min, 5% methanol substrate

| Substance | Km [1] [µM] | kcat [1] [s⁻¹] | Km [2] [µM] | kcat [2] [s⁻¹] |
| --- | --- | --- | --- | --- |
| AidH (Ochrobactrum sp. T63; A147V) | 380 ± 60 | 9.79 | 150 ± 20 | 12.6 |
| AidH (Ochrobactrum sp. T63; A147F) | 1080 ± 250 | 1.42 | 640 ± 120 | 9.3 |
| AidH (Ochrobactrum sp. T63; A147G) | 160 ± 20 | 55.1 | 360 ± 80 | 67.2 |

Source: publication PMC9872604, “Targeting Multidrug-Recalcitrant Pseudomonas aeruginosa Biofilms: Combined-Enzyme Treatment Enhances Antibiotic Efficacy” (Antimicrobial Agents and Chemotherapy, 2023)
